One test concerns the target T1, human TP receptor (Homo sapiens, UniProt P21731).
T1 sequence (P21731 1-343): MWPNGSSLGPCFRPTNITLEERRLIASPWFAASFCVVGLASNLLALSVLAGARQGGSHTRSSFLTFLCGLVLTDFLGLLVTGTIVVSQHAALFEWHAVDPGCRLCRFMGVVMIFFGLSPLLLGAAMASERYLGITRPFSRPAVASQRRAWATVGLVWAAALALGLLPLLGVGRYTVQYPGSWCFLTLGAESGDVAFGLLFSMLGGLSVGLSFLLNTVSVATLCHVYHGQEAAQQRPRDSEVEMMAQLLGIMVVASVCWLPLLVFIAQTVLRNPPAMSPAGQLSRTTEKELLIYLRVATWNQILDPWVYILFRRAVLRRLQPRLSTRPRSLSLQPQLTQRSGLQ
Briefly: IP-One (IP1 HTRF) functional assay, TP receptor antagonist activity. Format: cell-based. Details: expressed in transfected cells. Particulars: QBI-HEK 293A cells stably transfected with human TP receptor; agonist I-BOP 1.6 nM; IP1 by HTRF; read-out: TP Receptor Antagonist Activity IPOne Assay Human TP.

A further test concerns the target T2, mouse TP receptor (Mus musculus, UniProt P30987).
T2 sequence (P30987 1-341): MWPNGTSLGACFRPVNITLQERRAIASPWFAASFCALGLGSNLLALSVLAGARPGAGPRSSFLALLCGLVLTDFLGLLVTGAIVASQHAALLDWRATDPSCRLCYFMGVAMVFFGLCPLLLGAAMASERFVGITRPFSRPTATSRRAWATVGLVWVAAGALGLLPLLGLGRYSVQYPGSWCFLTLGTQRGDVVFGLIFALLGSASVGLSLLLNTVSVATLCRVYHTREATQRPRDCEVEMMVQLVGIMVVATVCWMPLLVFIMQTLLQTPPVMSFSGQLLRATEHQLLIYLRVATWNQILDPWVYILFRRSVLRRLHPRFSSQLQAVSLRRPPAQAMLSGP
The test is described as above.

Setting [1] is: read-out: TP Receptor Antagonist Activity IPOne Assay Mouse TP, QBI-HEK 293A cells stably transfected with mouse TP receptor, agonist I-BOP 1.6 nM, IP1 by HTRF.

Structures are written as SMILES. Read-outs that look alike come from different tables or passages of the source. Where only a bound is given, the exact number is not on record here.

This note sets out measurements from patent publication US8530520B2, “Cycloalkyl-dione derivatives and methods of their use” (The Trustees Of The University Of Pennsylvania, priority 2011, dated 2013).

As for `CCC1=C(O)CC(Cc2cccc(CCNS(=O)(=O)c3ccc(Cl)cc3)c2)C1=O` (stereo not shown) [Compound 43, 4-Chloro-N-(3-((3-ethyl-4-hydroxy-2-oxocyclopent-3-en-1-yl)methyl)phenethyl)-benzenesulfonamide], the IC50 at human TP receptor amounted to 171 nM; on mouse TP receptor (setting [1]), 9.4 nM. As for `O=C1CCC(Cc2cccc(CCNS(=O)(=O)c3ccc(Cl)cc3)c2)=C1O` [Compound 51525, 4-Chloro-N-(3-((2-hydroxy-3-oxocyclopent-1-en-1-yl)methyl)phenethyl)benzenesulfonamide], the IC50 on human TP receptor was determined as 50 nM. As for `O=C1CCC(O)=C1CCc1cccc(CCNS(=O)(=O)c2ccc(Cl)cc2)c1` [Compound 58, 4-Chloro-N-(3-(2-(2-hydroxy-5-oxocyclopent-1-en-1-yl)ethyl)phenethyl)-benzenesulfonamide], on mouse TP receptor (setting [1]), the IC50 stood at 1230 nM. With `CCC1=C(OCC(C)C)CC(Cc2cccc(CCNS(=O)(=O)c3ccc(Cl)cc3)c2)C1=O` (stereo not shown) [Compound 38, 4-Chloro-N-(3-((3-ethyl-4-isobutoxy-2-oxocyclopent-3-en-1-yl)methyl)phenethyl)-benzenesulfonamide], the IC50 worked out at 3800 nM at human TP receptor and 463 nM on mouse TP receptor (setting [1]). For the compound `O=C1CCC(O)=C1Cc1cccc(CCNS(=O)(=O)c2ccc(Cl)cc2)c1` [Compound 50, 4-Chloro-N-(3-((2-hydroxy-5-oxocyclopent-1-en-1-yl)methyl)phenethyl)benzenesulfonamide], the IC50 against mouse TP receptor was above 10000 nM. On to `O=C1C=C(O)C(Cc2cccc(CCNS(=O)(=O)c3ccc(Cl)cc3)c2)C1` (stereo not shown) [Compound 41, 4-Chloro-N-(3-((2-hydroxy-4-oxocyclopent-2-en-1-yl)methyl)phenethyl)benzenesulfonamide], for which the IC50 stood at 250 nM at human TP receptor and 52 nM at mouse TP receptor (setting [1]). The like results for `CC1=C(O)C(Cc2cccc(CCNS(=O)(=O)c3ccc(Cl)cc3)c2)CC1=O` (stereo not shown) [Compound 42, 4-Chloro-N-(3-((2-hydroxy-3-methyl-4-oxocyclopent-2-en-1-yl)methyl)phenethyl)-benzenesulfonamide] were, in that order, 131 nM and 3.1 nM. Regarding `O=C1C=C(O)CC(c2cccc(CCNS(=O)(=O)c3ccc(Cl)cc3)c2)C1` (stereo not shown) [Compound 51523, 4-Chloro-N-(2-(5′-hydroxy-3′-oxo-1′,2′,3′,6′-tetrahydro-[1,1′-biphenyl]-3-yl)ethyl)benzenesulfonamide], the IC50 at human TP receptor was 400 nM; on mouse TP receptor, 200 nM.

In the case of `CC(C)C1=C(O)CC(Cc2cccc(CCNS(=O)(=O)c3ccc(Cl)cc3)c2)C1=O` (stereo not shown) [Compound 44, 4-Chloro-N-(3-((4-hydroxy-3-isopropyl-2-oxocyclopent-3-en-1-yl)methyl)phenethyl)benzenesulfonamide], the IC50 at human TP receptor was determined as 198 nM; on mouse TP receptor (setting [1]), 18 nM. Regarding `O=C1C(C2CCCCC2)=C(O)CC1Cc1cccc(CCNS(=O)(=O)c2ccc(Cl)cc2)c1` (stereo not shown) [Compound 51499, 4-Chloro-N-(3-((3-cyclohexyl-4-hydroxy-2-oxocyclopent-3-en-1-yl)methyl)phenethyl)benzenesulfonamide], the IC50 turned out to be 58 nM at human TP receptor and 5.6 nM at mouse TP receptor. In the case of `CC1=C(OCC(C)C)CC(Cc2cccc(CCNS(=O)(=O)c3ccc(Cl)cc3)c2)C1=O` (stereo not shown) [Compound 37, 4-Chloro-N-(3-((4-isobutoxy-3-methyl-2-oxocyclopent-3-en-1-yl)methyl)phenethyl)benzenesulfonamide], the IC50 at mouse TP receptor (setting [1]) was found to be 1790 nM. `O=C1C(CC2CC2)=C(O)CC1Cc1cccc(CCNS(=O)(=O)c2ccc(Cl)cc2)c1` (stereo not shown) [Compound 45, 4-Chloro-N-(3-((3-(cyclopropylmethyl)-4-hydroxy-2-oxocyclopent-3-en-1-yl)methyl)phenethyl)benzenesulfonamide]: the IC50 on human TP receptor came to 41 nM; on mouse TP receptor, 5.8 nM. Turning to `CC(C)COC1=C(CC2CC2)C(=O)C(Cc2cccc(CCNS(=O)(=O)c3ccc(Cl)cc3)c2)C1` (stereo not shown) [Compound 40, 4-Chloro-N-(3-((3-(cyclopropylmethyl)-4-isobutoxy-2-oxocyclopent-3-en-1-yl)methyl)phenethyl)benzenesulfonamide], the IC50 at human TP receptor was determined as 21900 nM; on mouse TP receptor (setting [1]), 2520 nM. The like results for `CC(C)COC1=C(C(C)C)C(=O)C(Cc2cccc(CCNS(=O)(=O)c3ccc(Cl)cc3)c2)C1` (stereo not shown) [Compound 39, 4-Chloro-N-(3-((4-isobutoxy-3-isopropyl-2-oxocyclopent-3-en-1-yl)methyl)phenethyl)benzenesulfonamide] were, in that order, 5300 nM and 259 nM. `O=C(O)CCc1cccc(CCNS(=O)(=O)c2ccc(Cl)cc2)c1` [Compound 12, reference compound]: on mouse TP receptor (setting [1]), the IC50 came to 27 nM.
